The target in this experiment is Type-1 angiotensin II receptor (Oryctolagus cuniculus, UniProt P34976). The experiment can be described thus: Evaluation of Angiotensin II antagonistic activity by displacement of [125I]-Sar Ile-AII at the rabbit aorta Angiotensin II receptor, type 1. The experiment is classed as tissue-based. The procedure, abridged:
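Rabbit aorta membranes, run without BSA. Competition against [¹²⁵I]Sar¹Ile⁸-AII, in duplicate tubes. Some values are means of two or more separate assays. Standard error is estimated at <30% of the mean.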
(In general: Loss of bound radioactivity is the signal in a displacement assay; it reports binding, not function.)

The chains behind the UniProt entries cited, without tags or fusion partners.
UniProt P34976, whole entry: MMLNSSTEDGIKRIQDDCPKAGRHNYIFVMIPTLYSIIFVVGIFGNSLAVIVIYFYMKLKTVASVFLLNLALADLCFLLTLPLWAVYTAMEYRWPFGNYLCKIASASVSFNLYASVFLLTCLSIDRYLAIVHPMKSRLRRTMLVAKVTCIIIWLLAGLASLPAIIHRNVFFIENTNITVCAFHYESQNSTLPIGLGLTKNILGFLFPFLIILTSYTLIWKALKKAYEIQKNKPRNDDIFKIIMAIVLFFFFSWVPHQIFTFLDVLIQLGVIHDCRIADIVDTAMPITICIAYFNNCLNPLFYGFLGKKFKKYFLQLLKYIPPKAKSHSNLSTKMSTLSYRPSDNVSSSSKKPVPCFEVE

Structures are written as SMILES.

Take `CCCc1[nH]nc(C(=O)O)c1Cc1ccc(-c2ccccc2-c2nnn[nH]2)cc1`: the IC50 (commonly the concentration at which inhibition is half-maximal) worked out at 3.6 nM.
